Test results: patent US20120129721A1, “URINARY GM2 ACTIVATOR PROTEIN AS A MARKER OF ACUTE RENAL FAILURE OR THE RISK OF DEVELOPING ACUTE RENAL FAILURE” (priority 2009, published 2012)

Key:
Wistar rats [1] = experiment: Renal function characterization (plasma creatinine, BUN, urinary protein and NAG excretion) of gentamicin-treated rats; details: vs control
Text: (§1) In-house bred, female Wistar rats weighing 190-230 g were divided in the following experimental groups (FIG. 1): (i) Control: rats treated i.p. during 7-13 days with saline (0.9% NaCl), once daily.
(§2) For the whole experiment, rats were individually allocated in metabolic cages under temperature and humidity controlled conditions. Animals were allowed to eat regular chow and drink water ad libitum. At different times, 24-hour urine and blood samples were obtained. Urine was collected in graduated vessels supplemented with 100 μL of 0.1% sodium azide and 1 ml oil to prevent contamination and evaporation, respectively. Subsequently, urine was cleared by centrifugation at 1,175×g, aliquoted and stored at −80° C. Blood was drawn from a small incision in the tail and collected in heparinised capillaries. These were immediately centrifuged at 12,000×g and plasma was stored at −80° C. At the end of the experiment, rats were anesthetized with sodium pentobarbital (10 mg/kg). The kidneys were perfused with heparinised saline through the abdominal aorta, and they were immediately dissected. The right kidney and one half of the left one were swiftly frozen by immersion in liquid nitrogen, and stored at −80° C. Eventually, they were used for Western blot studies. For such a purpose, frozen tissues were homogenized under freezing conditions by hammer-smashing, until a fine powder was obtained. The powder was also kept at −80° C. The second half of the left kidney was immersed in 3.7% paraformaldehyde at 4° C. during 14-16 hours. After it, tissue samples were processed for immunohistochemical studies.
(§3) Plasma and urine concentration of creatinine and blood urea nitrogen (BUN) were determined by an automated analysis system (Reflotron®, Roche Diagnostics, Barcelona, Spain) and commercial reactive strips (Roche Diagnostics, Barcelona, Spain), using 32 μL of plasma and urine. This method has a lower detection limit of 0.5 mg/dL for creatinine. Samples reading under 0.5 mg/dL creatinine were head-to-head re-assayed by the colorimetric method of Jaffe (Hervey, 1953. Nature, 171: 1125).
(§4) Urine protein concentration (mg/mL) was measured by the Bradford method (39). Daily protein excretion (mg/day) was obtained by multiplying urine protein concentration by the 24-hour urine flow (mL/day).
(§5) Urine NAG activity (arbitrary units, AU/mL), as an estimation of urine NAG concentration, was measured by a commercial enzymatic test (Roche Diagnostics, Barcelona, Spain) following the manufacturer's instructions. Urine NAG activity was converted into daily NAG excretion (AU/day) by multiplying urine NAG activity by 24-hour urine flow (mL/day).

Wistar rats [2] = system: Wistar rats
Text: as §1, §2, §3, §4, §5

Wistar rats [3] = experiment: Time course of markers of nephrotoxicity under gentamicin 150 mg/kg/day; details: G-150, after inception of treatment
Text: as §1
as §2, with “The powder was also kept at −80° C. The second half of the left kidney was immersed in 3.7% paraformaldehyde at 4° C. during 14-16 hours. After it, tissue samples were processed for immunohistochemical studies.” left out
Plasma and urine concentration of creatinine and blood urea nitrogen (BUN) were determined by an automated analysis system (Reflotron®, Roche Diagnostics, Barcelona, Spain) and commercial reactive strips (Roche Diagnostics, Barcelona, Spain), using 32 μL of plasma and urine. […] Samples reading under 0.5 mg/dL creatinine were head-to-head re-assayed by the colorimetric method of Jaffe (Hervey, 1953. Nature, 171: 1125).
Urine protein concentration (mg/mL) was measured by the Bradford method (39). […]
Urine NAG activity (arbitrary units, AU/mL), as an estimation of urine NAG concentration, was measured by a commercial enzymatic test (Roche Diagnostics, Barcelona, Spain) following the manufacturer's instructions. […]

[4] = system: GM2 activator protein (GM2AP) in urine; experiment: Urinary GM2AP (Western blot) and renal function in humans treated with gentamicin; assay type: in vivo; details: hospitalized patients under gentamicin regime for 2 or 3 days
Text: Supernatants were collected.
Urine samples from human hospitalized individuals under a gentamicin regime already in course for 2 or 3 days were obtained from the Hospital Universitario de Salamanca. As controls, the urine from age- and sex-matched individuals not receiving gentamicin was used.

[5] = system: GM2 activator protein (GM2AP) in urine; details: single nephrotoxic dose of uranyl nitrate 5 mg/kg, urine 4 days after treatment inception
Text: as §1
For the whole experiment, rats were individually allocated in metabolic cages under temperature and humidity controlled conditions. Animals were allowed to eat regular chow and drink water ad libitum. At different times, 24-hour urine and blood samples were obtained. Urine was collected in graduated vessels supplemented with 100 μL of 0.1% sodium azide and 1 ml oil to prevent contamination and evaporation, respectively. Subsequently, urine was cleared by centrifugation at 1,175×g, aliquoted and stored at −80° C. Blood was drawn from a small incision in the tail and collected in heparinised capillaries. […]
Protein extracts were obtained from 100 mg tissue homogenate powder, prepared by homogenizing the kidneys with a tissue mixer (Ultra-Turrax T8, IKA®-Werwe) at 4° C. in homogenization buffer (140 mM NaCl, 20 mM Tris-HCl pH=7.5, 0.5 Methylenediaminetetraacetic acid—EDTA-, 10% glycerol, 1% Igepal CA-630, 1 μg/mL aprotinin, 1 μg/mL leupeptin, 1 μg/mL pepstatin A, 1 mM phenylmethylsulphonyl fluoride—PMSF-). […] Protein concentration was measured with a commercial kit (BioRad) based on the Lowry method. […]
Protein concentration was determined by the Bradford method.

[6] = single UN 0.5 mg/kg immediately after gentamicin 50 mg/kg/day regime (G-50)
[7] = single UN 0.5 mg/kg only (after saline)

For gentamicin, the plasma creatinine concentration (Wistar rats [1]; G-50, 7 days) was “not modified”, the “proteinuria (daily urinary excretion of proteins)” value (Wistar rats [1]; G-50, 7 days) was “no proteinuria” and the “urinary NAG excretion” value (Wistar rats [1]; G-50, 7 days) was “not modified”. For the same substance, the plasma creatinine concentration (Wistar rats [1]; G-150, 7 days) was “profoundly altered”, the “proteinuria (daily urinary excretion of proteins)” value (Wistar rats [1]; G-150, 7 days) was “overt proteinuria” and the “urinary NAG excretion” value (Wistar rats [1]; G-150, 7 days) was “very increased”. For the same substance, the “plasma concentration of BUN” value (Wistar rats [2]; rat, in vivo) was “No alterations”, the “plasma concentration of creatinine” value (Wistar rats [2]; rat, in vivo) was “No alterations” and the “day by which NAG excretion was increased” value (Wistar rats [3]) was 4 days. The “day by which creatinine clearance was altered” value (Wistar rats [3]) was 4 days, the “day by which plasma creatinine was increased” value (Wistar rats [3]) was 4 days and the “renal function (plasma creatinine, BUN, estimated GFR)” value [4] was “within normal status”.
For uranyl nitrate, the plasma creatinine concentration (Wistar rats [2]; UN 0.5 mg/kg one week of rest after gentamicin 50 mg/kg/day regime) was “increase”, the plasma creatinine concentration (Wistar rats [2]; UN 0.5 mg/kg simultaneously with gentamicin 50 mg/kg/day (co-treatment)) was “increase” and the “proteinuria (urinary excretion of proteins)” value (Wistar rats [2]; single UN 0.5 mg/kg after G-50) was “proteinuria”. The NAG excretion (Wistar rats [2]; single UN 0.5 mg/kg after G-50, day 11) was “increased”, the “plasma concentration of BUN” value (Wistar rats [2]; [6]) was “increases” and the “plasma concentration of creatinine” value (Wistar rats [2]; [6]) was “increases”. For the same substance, the “plasma concentration of BUN” value (Wistar rats [2]; [7]) was “No alterations”, the “plasma concentration of creatinine” value (Wistar rats [2]; [7]) was “No alterations” and the “urinary GM2AP (Western blot)” value [5] was “high levels”.

Like-named read-outs stand apart in the source and are kept apart here.
